Experimental data from patent publication US6340697B1, “Oxime derivatives and agricultural chemicals containing the same” (Dainippon Ink and Chemicals, Inc., priority 1997, dated 2002).

Key:
Phytophthora infestans = type: in vivo; settings: tomato foliage spray, effective component 250 ppm, degree of disease after 5 days
Pyricularia oryzae = type: in vivo; settings: rice foliage spray, effective component 250 ppm, degree of disease after 7 days

For `Cc1ccc(CON=C(c2ccccc2)c2nsnc2C)nc1` [1-(b)-9], the Evaluation (Phytophthora infestans) was “B (grade “B” was selected when the number of diseased plants, which include plants with lesions or withered plants, is around 10% among the total numbers of plants)”.

With `Cc1snnc1C(=NOCc1ccccn1)c1ccc(Cl)cc1` [4-(a)-3] the Evaluation (Phytophthora infestans) was “B (grade “B” was selected when the number of diseased plants, which include plants with lesions or withered plants, is around 10% among the total numbers of plants)”.

For `Cc1cccc(C(=NOCc2ccccn2)c2nnsc2C)c1` [4-(a)-22], the Evaluation (Pyricularia oryzae) was “B (grade “B” was selected when the number of diseased plants, which include plants with lesions or withered plants, is around 10% among the total numbers of plants)” and the Evaluation (Phytophthora infestans) was “B (grade “B” was selected when the number of diseased plants, which include plants with lesions or withered plants, is around 10% among the total numbers of plants)”.

For `Cc1nsnc1C(=NOCc1ccccn1)c1ccc(F)cc1` [4-(b)-13], the Evaluation (Phytophthora infestans) was “B (grade “B” was selected when the number of diseased plants, which include plants with lesions or withered plants, is around 10% among the total numbers of plants)”.

`Cc1snnc1C(=NOCc1nccs1)c1ccccc1` [6-(a)-19] was tested, and the Evaluation (Pyricularia oryzae) was “B (grade “B” was selected when the number of diseased plants, which include plants with lesions or withered plants, is around 10% among the total numbers of plants)” and the Evaluation (Phytophthora infestans) was “B (grade “B” was selected when the number of diseased plants, which include plants with lesions or withered plants, is around 10% among the total numbers of plants)”.

For `Cc1nsnc1C(=NOCc1nccs1)c1ccccc1` [6-(b)-19], the Evaluation (Pyricularia oryzae) was “B (grade “B” was selected when the number of diseased plants, which include plants with lesions or withered plants, is around 10% among the total numbers of plants)” and the Evaluation (Phytophthora infestans) was “B (grade “B” was selected when the number of diseased plants, which include plants with lesions or withered plants, is around 10% among the total numbers of plants)”.

For `Cc1snnc1C(=NOCc1csc(N)n1)c1ccccc1` [8-(a)-1], the Evaluation (Phytophthora infestans) was “B (grade “B” was selected when the number of diseased plants, which include plants with lesions or withered plants, is around 10% among the total numbers of plants)”.

With `Cc1nsnc1C(=NOCc1csc(NC(=O)CC(C)C)n1)c1ccccc1` [8-(b)-8] the Evaluation (Phytophthora infestans) was “B (grade “B” was selected when the number of diseased plants, which include plants with lesions or withered plants, is around 10% among the total numbers of plants)”.

In the case of `CCC(C)C(=O)Nc1nc(CON=C(c2ccccc2)c2nsnc2C)cs1` (stereo not drawn) [8-(b)-9], the Evaluation (Phytophthora infestans) is reported as “B (grade “B” was selected when the number of diseased plants, which include plants with lesions or withered plants, is around 10% among the total numbers of plants)”.
